Source: patent US20190353647A1, “NOVEL REAL-TIME MULTIPLEXED, MULTI-COLOR BIOLUMINESCENCE RESONANCE ENERGY TRANSFER ASSAY, APPARATUS, AND USES THEREOF” (Universite de Bordeaux, priority 2016, published 2019)
Where “and” joins values, the source holds several entries; their conditions need not be identical. Equal values may be shown once. Blank lines part the entries; values can stand above or below the substance they belong to.

Experiments:
TRPV4-Luc (human) [1] = molecular target: TRPV4-Luc (human) (UniProt Q9HBA0); assay: three-color spectral BRET, mixed population of HEK293T cells, purple coelenterazine
TRPV-Luc = assay: BRET in live HEK293T cells, agonist activation
Luc-TRPV3 (human) [2] = molecular target: Luc-TRPV3 (human) (UniProt Q8NET8); assay: BRET in live HEK293T cells, saturating YFP-CaM expression, no agonist
TRPV1-Luc (human) = TRPV1-Luc (human) (UniProt Q8NER1); assay: as above
TRPV4-Luc (human) [3] = molecular target: TRPV4-Luc (human) (UniProt Q9HBA0); assay: as above
Luc-TRPV3 (human) [4] = molecular target: Luc-TRPV3 (human) (UniProt Q8NET8); assay: three-color spectral BRET, mixed population of HEK293T cells, purple coelenterazine

basal BRET (TRPV4-Luc (human) [1]): 0.017 BRET ratio
Substance: LSSmOrange-CaM (from UniProt P0DP23 1-149)

increase of BRET upon activation (% of basal net BRET) (% of basal net BRET) (TRPV-Luc): 65 and 115
basal BRET (Luc-TRPV3 (human) [2]): 0.221 BRET ratio
basal BRET (TRPV1-Luc (human)): 0.202 BRET ratio
basal BRET (TRPV4-Luc (human) [3]): 0.275 BRET ratio
Substance: YFP-CaM (from UniProt P0DP23 2-149)

basal BRET (Luc-TRPV3 (human) [4]): 0.027 BRET ratio
Substance: aquamarine-CaM (from UniProt P0DP23 2-149)
